Experimental data reported in patent publication US7776819B2, “Targeted drug delivery of pain and addiction therapies using opioid receptor-mediated internalization” (The Board of Trustees of the University of Illinois, priority 2005, dated 2010).

The chains behind the UniProt entries cited, without tags or fusion partners.
UniProt P35372, whole entry: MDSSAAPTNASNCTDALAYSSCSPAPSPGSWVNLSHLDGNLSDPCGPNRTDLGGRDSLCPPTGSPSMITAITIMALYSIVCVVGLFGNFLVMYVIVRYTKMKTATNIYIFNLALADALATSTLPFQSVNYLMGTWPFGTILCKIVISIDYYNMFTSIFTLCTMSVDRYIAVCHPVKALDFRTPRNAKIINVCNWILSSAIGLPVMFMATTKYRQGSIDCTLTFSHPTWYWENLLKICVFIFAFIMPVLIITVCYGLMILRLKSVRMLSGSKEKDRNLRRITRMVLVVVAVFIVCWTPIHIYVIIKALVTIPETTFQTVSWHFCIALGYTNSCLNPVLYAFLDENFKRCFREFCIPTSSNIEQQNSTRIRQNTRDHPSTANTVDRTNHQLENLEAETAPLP

Target: T1, human mu opioid receptors (hMOR) (Homo sapiens, UniProt P35372)
T1 construct: expressed in transfected cells; host or cells: CHO cells, stably transfected (G418 selection); membrane preparation
Test: [3H]DAMGO displacement receptor binding assay, CHO-hMOR membranes
Details: 1 nM [3H]DAMGO
Experimental: Receptor membranes were prepared from CHO cells transfected with opioid mu receptors. Binding was performed at 30° C. in 50 mM pH 7.4 tris HCl buffer for 1 h for CHO-MOR (100 μg protein/reaction, 1 nM 3H-DAMGO). Reactions were terminated by vacuum filtration through GF/B filters pretreated with 0.2% polyethylenimine. These were then washed twice with ice-cold PBS. Filter-bound radioactivity was determined by liquid scintillation counting. Nonspecific binding was determined in the presence of 20 μM DAMGO.
Receptor binding assay was performed based on the method previously described. Briefly, membranes were prepared from CHO-hMOR cells by Polytron homogenization at setting 6 for 2 min on ice, followed by centrifugation at 20,000 g for 30 min at 4° C. Protein content was determined by the Coomassie protein assay method (Pierce Biotechnology, Rockford, Ill.) and bovine serum albumin as the standard. MOR receptor binding was conducted in triplicate with 1 nM [^3H]DAMGO in 50 mM Tris HCl buffer (pH 7.4) at 30° C. for 1 h (50 μg protein/reaction). Nonspecific binding was determined in the presence of 20 μM unlabelled DAMGO. […] Filter-bound radioactivity was determined by liquid scintillation counting (Beckman Coulter Inc., Fullerton, Calif.). Binding data representing the mean ±SD were analyzed using Prism program (GraphPad Software, San Diego, Calif.).

Structure (SMILES): C[C@@H](NC(=O)[C@@H](N)Cc1ccc(O)cc1)C(=O)N[C@@H](Cc1ccccc1)C(=O)NCC(=O)N[C@@H](Cc1ccc(O)cc1)C(=O)N1CCC[C@H]1C(=O)N[C@@H](CO)C(N)=O [dermorphin]
- IC50: 1.6 nM
